# scFv variants of Ab-14 (light chain) against a SARS-CoV-2 spike peptide

Antigen: PDVDLGDISGINAS, a 14-residue peptide of the SARS-CoV-2 spike HR2 region.

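These sequences belong to a second round, designed from the earlier measurements on random variants of the parent. Their group label is 14L_GP_Gen (GP: Gaussian process model; Gen: genetic algorithm; a sequence that several methods proposed may carry one label only). Affinity was read by AlphaSeq, a pooled yeast mating assay with surface-displayed partners. The frequency of each diploid, read from paired DNA barcodes, reflects how well the two displayed proteins bind. The ratio of observed to expected reads was calibrated, replicate by replicate, on BCL2-family standards whose Kd was known from biolayer interferometry. There are six technical replicates.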

Parent scFv Ab-14: VH joined to VL by a 15-residue (Gly4Ser)3 linker. Changes lie in the light chain CDRs alone.
VH: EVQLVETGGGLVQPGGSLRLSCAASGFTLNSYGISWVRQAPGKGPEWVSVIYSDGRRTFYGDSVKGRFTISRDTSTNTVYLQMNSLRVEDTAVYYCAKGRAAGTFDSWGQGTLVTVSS
VL: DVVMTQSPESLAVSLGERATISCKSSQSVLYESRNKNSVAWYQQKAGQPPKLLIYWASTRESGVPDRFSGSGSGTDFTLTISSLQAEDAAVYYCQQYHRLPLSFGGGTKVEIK

Substitutions are numbered in sequence along the VL above, starting at 1 (not Kabat).
Numbers give log10(Kd / nM), so 0 is 1 nM and 3 is 1 µM. Smaller is tighter.
Averages over replicates are reported, and they cover detected replicates only.
The authors averaged sequences with at least three values out of six and counted those with two or fewer as poor binders.

| changes | replicates, log10 nM | mean, log10 nM | signal with controls |
|---|---|---|---|
| S25L S28L W56E | -0.43 -0.53 -0.63 -0.34 -0.46 -0.38 | -0.46 | 0/18 |
| S25L S26Q W56E E61C S62D | -0.08 -0.46 -0.30 -0.55 -0.24 -0.12 | -0.29 | 0/18 |
| S25L L30M Y31M W56E | -0.08 -0.35 -0.37 -0.39 -0.34 -0.27 | -0.30 | 1/18 (2.42) |
| S25V W56E S62D | 1.67 1.20 1.04 0.80 1.07 0.93 | 1.12 | 1/18 (2.00) |
| S25L S26P V29F W56Q | 0.73 0.27 0.41 0.62 0.07 0.35 | 0.41 | 0/18 |
| S25L V29G W56N | -0.12 -0.21 -0.30 -0.41 -0.43 -0.13 | -0.27 | 3/18 (2.78) |
| S25F W56D Q96D | 0.06 -0.16 -0.24 -0.15 -0.08 -0.04 | -0.10 | 1/18 (2.12) |
| S25L V29C W56N T59Q | 0.85 0.64 0.94 0.01 2.09 0.34 | 0.81 | 0/18 |
| S25L V29E W56N T59K E61L | 0.44 0.61 0.48 0.57 0.44 0.72 | 0.54 | 1/18 (3.20) |
| S25L W56H E61C S62D | -0.05 -0.04 -0.13 -0.16 -0.10 0.13 | -0.06 | 0/18 |
| S25L V29M S38N W56D T59Q | -0.36 -0.41 -0.50 -0.53 -0.49 -0.18 | -0.41 | 1/18 (3.89) |
| S25L L30G S33E W56N | -0.31 -0.52 -0.59 -0.61 -0.48 -0.35 | -0.48 | 3/18 (2.44) |
| S25L S26E V29T W56N | -0.04 -0.13 -0.26 -0.21 -0.08 0.01 | -0.12 | 0/18 |
| S25L W56N E61L S62M | 0.21 -0.03 -0.03 -0.27 -0.09 0.11 | -0.02 | 3/18 (3.31) |
| S25L S28G V29W W56N | -0.57 -0.40 -0.64 -0.61 -1.05 -0.37 | -0.61 | 0/18 |
| S25L V29H K36W W56N | 0.71 0.57 0.39 0.31 0.38 0.53 | 0.48 | 0/18 |
| S25L S26Q W56N E61M S62D | 0.00 -0.10 0.06 0.02 0.15 0.14 | 0.05 | 1/18 (2.70) |
| S25M V29G W56N | 0.01 -0.08 -0.10 -0.02 -0.48 0.22 | -0.07 | 1/18 (3.92) |
| S25V V29H W56Q | 0.57 0.60 0.70 0.60 0.66 0.66 | 0.63 | 1/18 (2.78) |
| S25L V29W W56E E61C | 0.17 0.05 -0.22 -0.31 -0.17 -0.09 | -0.10 | 0/18 |
| S25L S26Q V29W L30P W56N | 0.15 -0.06 -0.18 -0.15 -0.03 0.05 | -0.04 | 1/18 (3.02) |
| S25V S38N W56E T59Q | -0.29 -0.56 -0.52 -0.70 -0.80 -0.46 | -0.55 | 2/18 (1.53) |
| S25L S26Q L30E W56N E61C | 0.13 -0.11 -0.17 -0.07 -0.25 0.03 | -0.07 | 0/18 |
| S25V L30Q W56N | 0.48 0.41 0.60 0.64 0.83 0.67 | 0.61 | 0/18 |
| S25L S26Q L30G W56N S62E | 0.08 0.02 -0.05 -0.12 -0.08 -0.01 | -0.03 | 0/18 |
| S25L S26L V29E W56N | 0.05 -0.13 0.29 -0.12 -0.05 0.45 | 0.08 | 1/18 (2.20) |
| S25L N35M W56N S62W | 0.25 0.36 0.34 0.65 0.18 0.25 | 0.34 | 0/18 |
| S25L Q27T S38N W56D | -0.88 -0.74 -1.17 -1.25 -1.13 -1.03 | -1.03 | 0/18 |
| K24F S25L W56N Q96D | -0.24 -0.33 -0.39 -0.50 -0.31 -0.15 | -0.32 | 1/18 (1.38) |
| S25L W56N E61L | 0.50 0.68 0.56 0.15 0.20 0.17 | 0.38 | 0/18 |
| K24V S25L W56N S62Q | -0.01 -0.18 -0.15 -0.17 -0.07 0.11 | -0.08 | 1/18 (4.21) |
| S25L S26P V29W L30G W56N T59Q | -0.28 -0.33 -0.41 -0.46 -0.42 -0.36 | -0.38 | 1/18 (2.32) |
| K24F S25L V29W W56N E61L | 0.69 0.38 0.21 0.34 0.34 0.58 | 0.42 | 0/18 |
| S25V V29M K36W W56N | 0.47 0.12 0.41 0.11 0.02 0.33 | 0.24 | 0/18 |
| S25L S26L V29M W56N T59Q | 0.26 0.18 -0.04 0.19 0.17 0.04 | 0.13 | 1/18 (2.21) |
| V29E W56N T59Q | 0.30 0.20 -0.16 0.04 0.07 0.35 | 0.13 | 1/18 (2.51) |
| S25L V29F W56E | -0.49 -0.30 -0.49 -0.59 -0.47 -0.36 | -0.45 | 1/18 (3.51) |
| S25L S26Q V29W L30E W56N T59Q | -0.34 -0.43 -0.47 -0.29 -0.31 -0.32 | -0.36 | 1/18 (4.31) |
| S25L S26P N35Q W56N | 0.00 -0.03 -0.02 -0.04 -0.31 0.12 | -0.05 | 2/18 (1.71) |
| S25L W56N S103K | 0.09 0.00 -0.01 0.08 0.00 0.06 | 0.04 | 0/18 |

Extract of 4 entries:

| changes | replicates, log10 nM | mean, log10 nM | signal with controls |
|---|---|---|---|
| S25L S28L W56E | -0.43 -0.53 -0.63 -0.34 -0.46 -0.38 | -0.46 | 0/18 |
| S25V L30Q W56N | 0.48 0.41 0.60 0.64 0.83 0.67 | 0.61 | 0/18 |
| V29E W56N T59Q | 0.30 0.20 -0.16 0.04 0.07 0.35 | 0.13 | 1/18 (2.51) |
| S25L Q27T S38N W56D | -0.88 -0.74 -1.17 -1.25 -1.13 -1.03 | -1.03 | 0/18 |

Of ten entries with the parent sequence, four were seen in most replicates (averages 0.34 to 2.37), three in one and three in none, so single entries are noisy.
Values of this round are not directly comparable with the first-round values of the same sequences.
Background: pairings of all light chain designs with three empty control strains gave a value in 4% of cases (median 2.64, 5th percentile 1.59). Values in that range, when seen in few replicates, are hard to tell from nonspecific mating. The control count says in how many pairings with the empty strains this scFv gave a signal, with their mean in brackets.

Source: Li et al. 2023 (doi:10.1038/s41467-023-39022-2), MIT Lincoln Laboratory and A-Alpha Bio; data file from the FLAb repository.